Molecular target: ribosomal protein bL19 (E. coli (endogenous in ribosomes of …))
Experiment: cryo-EM structure; 70S-tRNA(fMet) complexes on start-stop mRNA with 2.5x RF1-GAQ and 50 uM API, then 7.5x RF3-GDPCP; buffer A (30 mM HEPES pH 7.4, 70 mM NH4Cl, 5 mM MgCl2, 30 mM KCl); states I-IV at 3.8-3.9 A and RF3-70S
Conditions: both partners purified

B1: RF3 (release factor 3), bound to GDPCP (natural protein)
chain: MTLSPYLQEVAKRRTFAIISHPDAGKTTITEKVLLFGQAIQTAGTVKGRGSNQHAKSDWMEMEKQRGISITTSVMQFPYHDCLVNLLDTPGHEDFSEDTYRTLTAVDCCLMVIDAAKGVEDRTRKLMEVTRLRDTPILTFMNKLDRDIRDPMELLDEVENELKIGCAPITWPIGCGKLFKGVYHLYKDETYLYQSGKGHTIQEVRIVKGLNNPDLDAAVGEDLAQQLRDELELVKGASNEFDKELFLAGEITPVFFGTALGNFGVDHMLDGLVEWAPAPMPRQTDTRTVEASEDKFTGFVFKIQANMDPKHRDRVAFMRVVSGKYEKGMKLRQVRTAKDVVISDALTFMAGDRSHVEEAYPGDILGLHNHGTIQIGDTFTQGEMMKFTGIPNFAPELFRRIRLKDPLKQKQLLKGLVQLSEEGAVQVFRPISNNDLIVGAVGVLQFDVVVARLKSEYNVEAVYESVNVATARWVECADAKKFEEFKRKNESQLALDGGDNLAYIATSMVNLRLAQERYPDVQFHQTREH
notes: Peptide chain release factor RF3, translational GTPase, E. coli; pre-incubated with 1 mM GDPCP; also called RF3-GDPCP
- binding result: binds
